Test system: H1299-R175H cells
Test: Susceptibility to chemotherapy drugs of cells stably expressing scFv F2
Assay type: cell-based, human
Details: FIG. 5

B1: A4 scFv: human scFv clone; VL CDRs SEQ ID NOs:36-38 (protein)
scFv: VQLLESGGGLVQPGGSLRLSCAASGFTFSGYWMHWVRQAPGKGLEWVSEISGSGDSTHYGDSVKGRFTISRDNSKNTLYLQMNSLRAEDTAVYYCARGRNGSLDYWGQGTLVTVSSGSAGGGGSGGGGSGGGGSDIVLTQPPSASGTPGQRVTISCTGNSSNIGAGYDVHWYQQLPGKAPKLLIYSNNQRPSGVPDRFSGSKSGTSASLAISGLRSEDEADYYCAAWDDSLSSVVFGGGTKLTV
- susceptibility of cancer cells to chemotherapy drugs: capable of increasing the susceptibility of cancer cells to chemotherapy drugs

From patent US8207309B2, “Human synthetic single-chain antibodies directed against the common epitope of mutant P53 and their uses” (Ramot at Tel-Aviv University Ltd., priority 2005, dated 2012)
